Experimental data from PMC3726002 (Bioorganic & medicinal chemistry letters, 2011).

Amino acid sequences for entries named in this document (tags omitted). Residues count along the entry.
UniProt P43144, 26-479: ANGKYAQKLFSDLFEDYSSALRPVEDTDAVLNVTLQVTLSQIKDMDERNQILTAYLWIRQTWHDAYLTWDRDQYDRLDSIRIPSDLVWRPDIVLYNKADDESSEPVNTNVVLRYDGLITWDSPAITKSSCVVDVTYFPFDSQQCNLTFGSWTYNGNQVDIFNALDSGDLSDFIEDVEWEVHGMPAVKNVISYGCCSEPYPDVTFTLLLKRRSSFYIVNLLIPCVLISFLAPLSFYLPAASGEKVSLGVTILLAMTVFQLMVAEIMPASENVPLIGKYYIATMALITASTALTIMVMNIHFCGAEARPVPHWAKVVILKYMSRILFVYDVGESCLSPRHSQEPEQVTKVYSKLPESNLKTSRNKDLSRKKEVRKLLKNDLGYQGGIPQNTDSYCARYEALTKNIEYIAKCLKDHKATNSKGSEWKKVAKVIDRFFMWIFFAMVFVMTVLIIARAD
UniProt Q9JLB5, 25-447: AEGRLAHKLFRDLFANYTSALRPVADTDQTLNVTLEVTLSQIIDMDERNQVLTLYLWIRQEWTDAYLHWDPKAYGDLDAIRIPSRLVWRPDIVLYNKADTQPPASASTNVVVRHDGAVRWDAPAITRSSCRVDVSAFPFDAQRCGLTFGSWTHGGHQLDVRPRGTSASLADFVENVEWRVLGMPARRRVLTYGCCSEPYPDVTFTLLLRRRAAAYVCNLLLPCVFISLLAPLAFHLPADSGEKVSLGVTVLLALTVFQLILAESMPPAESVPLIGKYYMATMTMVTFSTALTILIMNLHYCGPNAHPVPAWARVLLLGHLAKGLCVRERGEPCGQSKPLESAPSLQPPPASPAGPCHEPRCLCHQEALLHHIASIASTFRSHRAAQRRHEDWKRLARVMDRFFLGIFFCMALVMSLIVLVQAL

Target: α9α10 nAChRs (Rattus norvegicus, UniProt P43144+Q9JLB5)
Assay type: cell-based
Conditions: ratio of α7 to α9α10 IC50

## C(#Cc1cc(C#CCCC[n+]2cccc(-c3ccccc3)c2)cc(C#CCCC[n+]2cccc(-c3ccccc3)c2)c1)CCC[n+]1cccc(-c2ccccc2)c1.[Br-].[Br-].[Br-] [Compound 9e]
  selectivity for the α9α10 subtype vs. the α7 subtype: 109 fold
